This assay addresses 5-hydroxytryptamine receptor 2A (Rattus norvegicus, UniProt P14842).

Amino acid sequences for entries named in this document (tags omitted).
UniProt P14842, whole entry: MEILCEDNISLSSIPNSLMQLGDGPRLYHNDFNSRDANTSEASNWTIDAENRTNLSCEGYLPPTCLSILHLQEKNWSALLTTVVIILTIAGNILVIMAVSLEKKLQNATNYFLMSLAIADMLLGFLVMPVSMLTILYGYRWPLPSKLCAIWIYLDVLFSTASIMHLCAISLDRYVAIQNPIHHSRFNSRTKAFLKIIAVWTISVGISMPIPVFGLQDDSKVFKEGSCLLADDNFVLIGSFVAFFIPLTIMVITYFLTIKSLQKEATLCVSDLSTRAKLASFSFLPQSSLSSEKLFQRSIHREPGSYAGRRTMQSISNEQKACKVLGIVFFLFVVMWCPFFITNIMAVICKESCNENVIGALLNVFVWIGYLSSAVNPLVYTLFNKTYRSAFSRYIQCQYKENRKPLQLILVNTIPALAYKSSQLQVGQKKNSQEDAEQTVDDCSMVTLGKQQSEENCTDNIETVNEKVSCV

The structures appear in SMILES notation.

In the case of `Cc1nc2sccn2c(=O)c1CCN1CCC(=C(c2ccc(F)cc2)c2ccc(F)cc2)CC1`, the Ki – broadly, a measure of affinity in units of concentration, obtained from inhibition or displacement – stood at 58.1 nM.

These data come from BindingDB's records for PubMed 1501121 (Sanofi Recherche, 1992).
